Literature values, collected in patent US20140031355A1, “HETEROCYCLIC COMPOUNDS AND THEIR USES” (Amgen Inc., priority 2010, published 2014).

By UniProt entry, the sequences of proteins in these tests, tags left out.
UniProt P42338, whole entry, species assumed: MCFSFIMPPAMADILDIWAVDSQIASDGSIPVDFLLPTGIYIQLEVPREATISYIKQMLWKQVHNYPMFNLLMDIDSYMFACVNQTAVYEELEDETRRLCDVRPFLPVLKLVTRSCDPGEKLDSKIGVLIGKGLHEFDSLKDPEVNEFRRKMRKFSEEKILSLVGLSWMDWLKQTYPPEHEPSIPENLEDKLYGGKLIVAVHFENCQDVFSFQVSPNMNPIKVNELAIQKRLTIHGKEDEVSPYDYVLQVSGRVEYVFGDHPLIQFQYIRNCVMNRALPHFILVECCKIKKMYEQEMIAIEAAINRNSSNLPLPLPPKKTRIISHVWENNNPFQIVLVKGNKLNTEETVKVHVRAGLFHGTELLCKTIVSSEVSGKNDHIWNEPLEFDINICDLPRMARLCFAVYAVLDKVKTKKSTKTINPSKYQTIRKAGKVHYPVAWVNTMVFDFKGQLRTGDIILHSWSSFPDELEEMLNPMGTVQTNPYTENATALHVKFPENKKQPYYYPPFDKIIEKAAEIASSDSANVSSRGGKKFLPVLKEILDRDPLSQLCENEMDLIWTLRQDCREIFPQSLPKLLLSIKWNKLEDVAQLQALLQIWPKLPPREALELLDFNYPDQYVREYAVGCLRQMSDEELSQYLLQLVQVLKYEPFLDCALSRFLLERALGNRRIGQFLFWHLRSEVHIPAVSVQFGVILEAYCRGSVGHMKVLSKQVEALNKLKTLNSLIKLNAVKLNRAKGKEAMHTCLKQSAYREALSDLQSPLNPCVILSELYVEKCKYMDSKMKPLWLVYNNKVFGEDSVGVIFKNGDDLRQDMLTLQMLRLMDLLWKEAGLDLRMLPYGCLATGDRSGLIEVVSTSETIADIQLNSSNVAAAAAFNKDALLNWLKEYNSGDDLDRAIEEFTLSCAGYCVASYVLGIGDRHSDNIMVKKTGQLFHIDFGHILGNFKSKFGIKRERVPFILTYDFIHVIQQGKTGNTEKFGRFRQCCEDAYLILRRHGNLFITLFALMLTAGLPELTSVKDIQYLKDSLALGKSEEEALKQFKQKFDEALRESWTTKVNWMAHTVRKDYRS

Molecular target: p110β (Homo sapiens, UniProt P42338)
Settings: quantity not given; read-out: potency on beta

- IC50: 7 nM
SMILES: Cc1cc(C(C)Nc2ccccc2)c2nc(N3CCOCC3)cc(=O)n2c1 (stereo not shown) [TGX-221]
